Measurements as given in EP0392423A2, “Substituted 1,4-7-10-tetraazacyclotridecanes, method for their preparation and use of the same for labelling substances with radionuclides” (priority 1989, dated 1990).
Like-named read-outs stand apart in the source and are kept apart here.

Test system: Transferrin
Details: human, serum
Experimental: Bei diesen Vergleichsversuchen wurde ¹¹¹In sowohl mit den bekannten 12- und 14-Ring-Cyclamen als auch mit dem erfindungsgemäßen Cyclam aus Beispiel 1 komplexiert und anschließend jeweils der ¹¹¹In-Austausch gegen Transferrin - ein bekanntermaßen gutes Komplexierungsmittel - in humanem Serum bei 37°C untersucht.

¹¹¹In-Austausch gegen Transferrin (12 h): ca. 10%
¹¹¹In-Austausch gegen Transferrin (120 h): > 30%
Substance: Tetradecantetraacetat [TETA]
